## CCCCCCCC/C=C\CCCCCCCC(=O)O [Oleic acid, cis-9-octadecenoic acid]
0.5% oleic acid and ethanol/water (E/W) in the donor solution
  enhancement in delivery rate: about a five-fold enhancement
Delivery of oxymorphone-HCl, oleic acid 0.25 mg/ml (0.025%), E/W 48/52, 1 mA, pig skin, listed as oleic acid
  Enhancement Factor: no enhancement

Reference: patent publication EP0525063B1, “Use of specific fatty acids in the manufacture of a medicament for their Iontophoresis delivery” (priority 1990, dated 1991)
